Measurements reported in patent US20150344559A1.

What was measured:
[1] = target: Human recombinant TNF-α (human) (UniProt P01375); assay: SPR (Biacore T200), single cycle kinetics, antibody captured on CM5 chip by anti-human Fc antibodies, TNF-α as analyte at 3.125 to 50 nM, 1:1 binding model
[2] = target: FcγRIIIA recombinant protein (UniProt P08637); assay: ELISA, FcγRIIIA coated on the plate, anti-human IgG-HRP detection; the reference itself

Kd [1] | koff [1] | kon [1] | EC50, fold of increase relative to Humira (fold relative to Humira) [2] | Max. binding, fold of increase relative to Humira (fold relative to Humira) [2] | Substance
0.0195 nM | 3.12e-05 s⁻¹ | 1.61e+06 M⁻¹ s⁻¹ |  |  | Adalimumab (Humira®) (antibody; other documents disagree on this pair)
 |  |  | 1 | 1 | Adalimumab (Humira®) (antibody)
